Measurements from ChEMBL document CHEMBL3997813, “Selective inhibition of monoamine oxidase A by purpurin, an anthraquinone” (Bioorg Med Chem Lett, 2017).

Species: Homo sapiens
Assay: Selectivity index, ratio of IC50 for recombinant human MAO-B to IC50 for recombinant human MAO-A

SMILES: O=C1c2ccccc2C(=O)c2c1ccc(O)c2O [ATHRAQUINONES A]
- Ratio IC50: > 1.99
